This data set is described as follows: Single dose pharmacokinetics study, oral and intravenous, blood and urine. The following applies: ICR (CD-1 IGS), in vivo, mouse; for Cmax: blood, read-out: Co/Cmax.

Read-outs that look alike come from different tables or passages of the source.

As for `C[C@H]1COc2c(N3CCN(C)CC3)c(F)cc3c(=O)c(C(=O)O)cn1c23` [Levofloxacin, levofloxacin], the Cmax (PO, 20.0 mg/kg, Mean) was determined as 8.16 µM. Further, the Cmax (iv, 5.0 mg/kg, Composite Mean) is 10.8 µM. Also, where the note is “po, 20 mg/kg”, the “Bioavailability (%) Using AUCinf” value was found to be 40.7%, the CL_F is 65.4 mL/min/kg and the Clast was 115 ng/mL.

These data come from US20210261570A1, “ANTIBIOTIC RESISTANCE BREAKERS” (KING'S COLLEGE LONDON, priority 2017, published 2021).
